Earlier results, collected in patent US10894960B2, “Compositions and methods for nucleic acid transfer” (Children's Hospital Medical Center, priority 2016, dated 2021).

Sequences of proteins named here, by UniProt entry; tags and fusion partners are left off.
UniProt P09874, whole entry, species assumed: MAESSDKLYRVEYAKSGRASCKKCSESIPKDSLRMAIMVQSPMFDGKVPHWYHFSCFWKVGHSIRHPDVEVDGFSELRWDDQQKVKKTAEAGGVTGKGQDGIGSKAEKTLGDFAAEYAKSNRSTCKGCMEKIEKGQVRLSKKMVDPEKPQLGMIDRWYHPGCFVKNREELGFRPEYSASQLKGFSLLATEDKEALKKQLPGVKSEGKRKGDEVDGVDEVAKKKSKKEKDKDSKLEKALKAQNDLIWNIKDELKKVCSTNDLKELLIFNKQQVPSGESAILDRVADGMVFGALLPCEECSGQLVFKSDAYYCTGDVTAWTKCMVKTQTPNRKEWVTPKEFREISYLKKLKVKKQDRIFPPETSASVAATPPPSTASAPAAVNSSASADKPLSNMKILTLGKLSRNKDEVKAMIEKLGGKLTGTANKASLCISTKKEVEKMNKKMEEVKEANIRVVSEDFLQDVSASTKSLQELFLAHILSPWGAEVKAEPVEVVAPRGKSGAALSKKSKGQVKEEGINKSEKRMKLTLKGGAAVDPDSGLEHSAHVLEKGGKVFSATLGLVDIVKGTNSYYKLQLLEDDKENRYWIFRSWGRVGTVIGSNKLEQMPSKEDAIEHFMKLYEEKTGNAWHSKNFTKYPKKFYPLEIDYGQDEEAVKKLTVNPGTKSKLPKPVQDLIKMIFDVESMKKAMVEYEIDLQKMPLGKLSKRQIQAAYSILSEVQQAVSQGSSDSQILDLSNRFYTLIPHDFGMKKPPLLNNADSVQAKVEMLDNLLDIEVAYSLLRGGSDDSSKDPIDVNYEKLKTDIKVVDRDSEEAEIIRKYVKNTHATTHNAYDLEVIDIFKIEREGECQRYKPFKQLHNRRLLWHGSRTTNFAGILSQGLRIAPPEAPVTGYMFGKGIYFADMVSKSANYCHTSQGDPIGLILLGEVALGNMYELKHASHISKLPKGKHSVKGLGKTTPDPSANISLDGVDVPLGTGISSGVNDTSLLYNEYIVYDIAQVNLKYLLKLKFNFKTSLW

Target: PARP-1 (Homo sapiens, UniProt P09874)
Conditions: Target PARP-1, gene symbol PARP1

Effect: Inhibition
SMILES: O=c1[nH]cnc2c1ncn2[C@@H]1O[C@H](CO)[C@@H](O)[C@H]1O [INO 1001]
